Molecular target: human APJ receptor (Homo sapiens (Human), UniProt P35414)
Conditions: read-out: Activity hAPJ SPA EC50 IP; [35S]GTPγS binding, CHO membranes expressing human APJ receptor

Protein sequences, listed by entry. Tags and fused reporters are not part of them.
UniProt P35414, whole entry: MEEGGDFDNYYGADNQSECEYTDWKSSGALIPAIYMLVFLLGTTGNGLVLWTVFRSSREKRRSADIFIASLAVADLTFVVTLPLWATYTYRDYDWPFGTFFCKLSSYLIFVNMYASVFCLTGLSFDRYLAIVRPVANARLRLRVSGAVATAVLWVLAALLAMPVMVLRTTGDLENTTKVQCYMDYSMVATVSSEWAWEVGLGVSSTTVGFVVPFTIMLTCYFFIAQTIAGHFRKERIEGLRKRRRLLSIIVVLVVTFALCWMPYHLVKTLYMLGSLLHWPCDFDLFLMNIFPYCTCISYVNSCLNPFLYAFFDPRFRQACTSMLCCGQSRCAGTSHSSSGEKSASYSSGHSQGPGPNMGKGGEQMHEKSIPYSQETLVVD

**Q.** How did the EC50 turn out when `COCC(COC)n1c(NS(=O)(=O)[C@@H](C)[C@H](OC)c2ncc(Cl)cn2)nnc1-c1ccn(C)n1` was run?
**A.** Its EC50 is 16 nM.

Source: patent US11046680B1, “Heteroaryl-substituted triazoles as APJ receptor agonists” (priority 2016, dated 2021)
